Data reported in patent US20200332020A1 (REGENTS OF THE UNIVERSITY OF MINNESOTA, published 2020).

Experiments:
[1] = target: HSPG2 (perlecan) on cells (human, UniProt P98160 22-4391); experiment: flow cytometry titration on MDA-MB-231-LM2 cells
Protocol: Non-linear regression analysis was performed using the geometric MFIs from antibody binding titrations, using GraphPad Prism software. […] This procedure was used for all cell lines tested for Tw1S4_6 or Tw1S4_AM6 binding.
The parent TwiS4_6 antibody and the optimized Tw1S4_AM6 antibody have identical heavy chains, and therefore CDR 1, 2 and 3 on the heavy chains are identical. The light chains of the parent TwiS4_6 antibody and the optimized Tw1S4_AM6 antibody differ only in CDR 3. Light chain CDR 3 of TwiS4_6 is […] (SEQ ID NO: 16), whereas Light chain CDR 3 of Tw1S4_AM6 is […] (SEQ ID NO: 7).

[2] = target: T1, Recombinant HSPG2 domain 1 (first 247 amino acids of human HSPG2, C-terminal His tag) (human, UniProt P98160 22-247); experiment: biolayer interferometry (BLItz), His-tagged HSPG2D1 on Ni-NTA biosensor
T1 construct: range 1-247; The stated range counts from residue 1, so it includes the signal peptide; also called HSPG2D1; perlecan domain 1; not shown: C-terminal His tag from the pcDNA 3.3+ vector
Protocol: (§1) We used biolayer inferometry (BLItz, Fortebio) to determine antibody binding kinetics specifically with purified HSPG2 domain 1. Ni-NTA biosensors were hydrated for 10 minutes in phosphate buffered saline. Following hydration, a 30 second baseline was established, followed by a 10-minute loading of the biosensor with 10 μg/mL HSPG2 domain 1 protein. The biosensor was then placed in PBS to establish baseline for 30 seconds. A two-step antibody association—dissociation cycle of 5 minutes each was then used to determine the kinetic association (kₐ) and dissociation (kd) rate constants. The equilibrium dissociation constant (KD) was calculated as KD=kd/kₐ
(§2) An important caveat with flow cytometry-based titration curves is the potential for avidity affects contributing to the binding, resulting in an ‘apparent KD’. Biophysical techniques are most often employed to generate the true, analytically relevant ‘intrinsic KD^{’} value. We chose biolayer interferometry as a means of assessing the kinetics of antibody-antigen binding with HSPG2D1.

[3] = target: T1, Recombinant HSPG2 domain 1 (first 247 …); experiment: biolayer interferometry (BLItz), HSPG2 domain 1 on Ni-NTA biosensor
Protocol: as §1, §2

- fold improvement in binding affinity compared to the parent antibody Tw1S4_6 [1]: > 10 fold
- Kd [2]: 80 nM
- Kd [3]: 79.3 nM
- koff [3]: 0.00225 s⁻¹
- kon [3]: 28400 M⁻¹ s⁻¹
B1: Tw1S4_AM6 IgG (antibody, V domains shown)
VH: EVQLLESGGGLVQPGGSLRLSCAASGFTFSSYAMSWVRQAPGKGLEWVSAIREDGIKTYYADSVKGRFTISRDNSKNTLYLQMNSLRAEDTAVYYCAKRARRFDYWGQGTLVTVSS
VL: DIQMTQSPSSLSASVGDRVTITCRASQSISSYLNWYQQKPGKAPKLLIYNASLLQSGVPSRFSGSGSGTDFTLTISSLQPEDFATYYCQQTRNHRTHFGQGTKVEIKR
